For assay [1], the system named is Escherichia coli. The conditions noted are these: ATCC 25922.
For assay [2], the system named is Escherichia coli. The conditions noted are these: ATCC 25922. This is another data set of the same source.

For the sequence GENTAMICIN, the MIC against Escherichia coli [1] and in the assay on Escherichia coli [2] was 0.5 µg/mL throughout.

One may read the MIC as the lowest concentration that inhibits growth of the organism. Low readings indicate greater potency, high ones weaker potency.

The record behind these values is ChEMBL document CHEMBL3621045, “Structural Insights Lead to a Negamycin Analogue with Improved Antimicrobial Activity against Gram-Negative Pathogens” (ACS Med Chem Lett, 2015).
